Source: PubChem BioAssay AID463254 (National Center for Advancing Translational Sciences (NCATS), 2010)
This is a selection; strong and weak results do not stand in their true shares. The source made the active and inactive calls. Calls come from the whole dose curve; as a rule, active = well fitted inhibition curve with a large enough effect; inconclusive = small, poorly fitted or top-dose-only effect, or effect the other way; inactive = flat fitted curve, though single readings scatter.

Chains of the proteins cited; added tags and fusions are not shown. Lines headed by an entry give the natural chain unless they say otherwise; changes in a name come on top.
UniProt O75604: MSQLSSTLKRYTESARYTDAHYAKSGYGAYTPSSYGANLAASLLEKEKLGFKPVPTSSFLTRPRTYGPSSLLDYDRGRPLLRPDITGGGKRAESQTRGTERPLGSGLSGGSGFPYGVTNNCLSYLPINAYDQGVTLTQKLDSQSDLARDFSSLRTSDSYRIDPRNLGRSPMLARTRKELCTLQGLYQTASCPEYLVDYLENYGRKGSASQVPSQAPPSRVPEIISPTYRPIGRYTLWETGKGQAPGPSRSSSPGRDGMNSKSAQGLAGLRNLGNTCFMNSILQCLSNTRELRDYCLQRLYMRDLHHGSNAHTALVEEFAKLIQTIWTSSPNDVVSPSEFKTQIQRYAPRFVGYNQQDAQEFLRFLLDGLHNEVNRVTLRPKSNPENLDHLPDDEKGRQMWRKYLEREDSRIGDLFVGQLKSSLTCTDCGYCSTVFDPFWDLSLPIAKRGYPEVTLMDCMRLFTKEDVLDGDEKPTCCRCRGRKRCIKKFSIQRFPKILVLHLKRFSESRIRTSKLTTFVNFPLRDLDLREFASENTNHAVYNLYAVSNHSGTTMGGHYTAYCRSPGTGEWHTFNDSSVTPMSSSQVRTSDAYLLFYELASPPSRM

Molecular target: Ubiquitin carboxyl-terminal hydrolase 2 (Homo sapiens) (UniProt O75604)
Assay: qHTS Assay for Inhibitors of Ubiquitin-specific Protease USP2a Using CHOP2 as the Reporter
Conditions: USP2 core, Ub-CHOP2 coupled fluorogenic reporter, 485/531; at 38.3 µM (top of the series)
Description: NIH Molecular Libraries Screening Centers Network [MLSCN] NIH Chemical Genomics Center [NCGC] MLSCN Grant: XO1-MH079852-01 PI Name: Nicholson, Ben. Progenra Inc, Malvern, PA NCGC Assay Overview: Homeostasis of cellular proteins is maintained through a combination of synthesis and degradation. The pathway that accounts for the majority of protein degradation is the ubiquitin-proteasomal pathway. Ubiquitin (Ub) is highly conserved in all cells and the generation of a multi-Ub chain typically targets proteins for degradation by the proteasome. However, ubiquitination is highly reversible and dynamic. Deubiquitination, the reverse process, is catalyzed through the action of enzymes referred to as isopeptidases or deubiquitinating enzymes (DUBs). This group of enzymes is collectively responsible for maintaining adequate pools of free ubiquitin and regulating the ubiquitination status of cellular proteins. The class of DUBs referred to as the ubiquitin-specific proteases (USP) family functions endoproteolytically to cleave Ub chains from a wide range of protein substrates. USP2a deubiquitinates fatty acid synthase (FASN) which has recently been identified as an emerging oncology target. To identify inhibitors of USP2a a cell-free assay was employed. […] The reporter enzyme chosen is an enterokinase called CHOP2, which is activated when the Ub is cleaved by USP2. The free and now activated reporter can subsequently act on its reporter substrate. Thus, this coupled assay gives a fluorescent read-out at excitation/emission wavelengths of 485/531. The assay was developed by Progenra, Inc. and has been licensed for sale by LifeSensors, Inc. as Ub-CHOP2-Reporter-Kit (#PR1101).
NCGC Assay Protocol Summary: The assay buffer, prepared fresh at the day of the assay, contains 20mM Tris-HCl pH 8.0, 2mM CaCl2, 2mM beta-Mercaptoethanol, 0.05% CHAPS. 3ul of 20nM (10nM final) USP2 core, which is stored on ice, is dispensed into a medium-binding black solid Kalypsys 1,536 well plate using the Kalypsys dispenser. The assay plate is then pinned with 23nL compound with the Kalypsys pintool in columns 5-48. The controls are pinned as follows: column 1 two-fold dilutions of 2M NEM in duplicate; column 2 2M NEM (final concentration 38.2mM); column 3&4 DMSO. The assay plate is incubated at RT for 30min. Subsequently, 1.5uL of 100nM (25nM final) Ub-CHOP2 and 1.5uL of 100nM (25nM final) Reporter Substrate (both stored on ice and protected from light) were dispensed into the plate using the Kalypsys dispenser. Plates were read after 60min RT incubation on a ViewLux (Perkin Elmer) plate reader using the following wavelengths Ex 485nm /Em 531nm. Data were normalized to the to AC100 inhibition (NEM). Concentration-response curves were fitted to the normalized data and the concentration-response curves were then classified based on curve quality (r2), response magnitude and degree of measured activity. The time zero reading was used to flag fluorescence artifacts. Keywords: ubiquitination, deubiquitination, proteases, profluorescent, MLSMR, MLPCN, NIH Roadmap, qHTS, NCGC

Row | Structure (SMILES) | activity change, negative = inhibition
1 | O=[N+]([O-])c1ccc2c(c1)nnn2O | inactive: 0.0811%
2 | N#CCCN(C(=O)COC(=O)C(O)(c1ccccc1)c1ccccc1)c1ccc(F)cc1 | inactive: 0.768%
3 | CN(C(=O)Cc1ccccc1)[C@@H]1CC[C@]2(CCCO2)C[C@H]1N1CCCC1 | inactive: -4.07%
4 | CCOP1(=S)c2c(C)nn(CCC#N)c2N=C(c2ccc(F)cc2)N1C (centres undefined) | inactive: 2.75%
5 | NC(=O)Nc1ccc([As](=O)(O)O)cc1 | inactive: 7.08%
6 | O=C(O)COc1ccc([As](=O)(O)O)cc1[N+](=O)[O-] | inactive: 0.802%
7 | Nc1ccccc1[As](=O)(O)c1ccccc1 | inactive: 11.7%
8 | CS(=O)(=O)c1cc([N+](=O)[O-])c2no[n+]([O-])c2c1 | inactive: 2.67%
9 | CCOP1(=S)c2c(C)nn(CCC#N)c2N=C(c2ccccc2F)N1C (centres undefined) | inactive: 1.94%
10 | O=P(Nc1nccs1)(Oc1ccccc1)Oc1ccccc1 | inactive: -4.53%
11 | O=P(Nc1nccs1)(c1ccccc1)c1nc2ccccc2s1 (centres undefined) | inactive: -0.143%
12 | COc1cc(C2NCCC3(OCCO3)C2(C)C)cc(OC)c1OC (centres undefined) | inactive: 3.25%
13 | CCOP(=O)(Nc1cccc2ccccc12)OCC | inactive: 2.07%
14 | CCCOP(=S)(Nc1nc(N)cc(=O)[nH]1)OCCC | inactive: -5.39%
15 | Cc1ccc(NCCc2c([N+](=O)[O-])cc([N+](=O)[O-])cc2[N+](=O)[O-])cc1 | inactive: -0.581%
16 | O=[As](O)(c1cccc(O)c1)c1cccc(O)c1 | inactive: 3.21%
17 | O=[As](O)(O)c1cccnc1 | inactive: 0.349%
18 | COc1cc(C(=O)NCC2(N3CCOCC3)CCCCC2)cc(Cl)c1OC(C)C | inactive: 1.33%
19 | CS(=O)(=O)c1ccc(Cl)c(NC(=O)COC(=O)C(O)(c2ccccc2)c2ccccc2)c1 | inactive: 3.74%
20 | O=C(OC1CN2CCC1CC2)c1ccc(Cl)cc1 (centres undefined) | inactive: -1.36%
21 | O=[As](O)(c1ccccc1Br)c1ccccc1Br | inactive: -1.75%
22 | CN(C(=O)Cc1ccc(Cl)c(Cl)c1)[C@@H]1CCCC[C@H]1N1CCCC1 | inactive: 3.49%

Row | Structure (SMILES) | activity change, negative = inhibition
23 | CC(C)/C=N\N=C(\N)N[N+](=O)[O-] | inactive: -0.377%
24 | COc1ccccc1CNC(=O)COC(=O)C(O)(c1ccccc1)c1ccccc1 | inactive: 0.0629%
25 | Clc1n[nH]nc1-c1nn[nH][15n]1 | inactive: -0.626%
26 | CC(C)(C)C(=O)NC(Sc1ncccn1)C(Cl)(Cl)Cl (centres undefined) | inactive: 2.24%
27 | CCOP(=O)(Nc1ccc(C)cn1)OCC | inactive: 6.07%
28 | CCC1=CC2Cc3nc4ccc(Cl)cc4c(N)c3C(C1)C2 (centres undefined) | inactive: 0.812%
29 | O=P1(Nc2ccccn2)COc2ccccc2OC1 | inactive: 1.12%
30 | CCOP(=O)(NC(=NC(C)c1ccccc1)NC(C)c1ccccc1)OCC (centres undefined) | inactive: -0.731%
31 | Cc1ccc(OCC(=O)OC2CN3CCC2CC3)cc1 (centres undefined) | inactive: 0.568%
32 | O=[As](O)(c1cccs1)c1cccs1 | inactive: 18.7%
33 | NS(=O)(=O)c1cccc(NC(=O)COC(=O)C(O)(c2ccccc2)c2ccccc2)c1 | inactive: 3.07%
34 | O=P1(Nc2ccc(Br)cn2)COc2ccccc2OC1 | inactive: -1.64%
35 | Nc1cccc([As](=O)(O)c2ccccc2)c1 | inactive: 10.9%
36 | O=P1(Nc2ncccn2)COc2ccccc2OC1 | inactive: -1.5%
37 | O=C(/C=C/c1ccccc1)OC1CN2CCC1CC2 (centres undefined) | inactive: 8.65%
38 | CN(C)C1(CNC(=O)c2ccc(S(C)(=O)=O)cc2)CCCCC1 | inactive: 0.318%
39 | Cc1nn(-c2ccccc2)c2c1P(=O)(N1CCOCC1)N(C)C(c1ccccc1)=N2 (centres undefined) | inactive: -0.314%
40 | Cc1ccc(C(=O)OC2CN3CCC2CC3)cc1 (centres undefined) | inactive: 6.37%
41 | CC1CCC(C(C)C)C(OP(=O)(Nc2ccccn2)c2ccccc2)C1 (centres undefined) | inactive: 0.679%
42 | O=[N+]([O-])c1ccc(Nc2ccc(Oc3ccc([N+](=O)[O-])cc3[N+](=O)[O-])cc2)c([N+](=O)[O-])c1 | inactive: 0.573%
43 | Cc1cc(SC(NC=O)C(Cl)(Cl)Cl)ncn1 (centres undefined) | inactive: -2.18%
44 | O=P(Nc1ccccn1)(c1cccc2ccccc12)c1cccc2ccccc12 | inactive: 0.836%

Row | Structure (SMILES) | activity change, negative = inhibition
45 | CCOC(=O)Nc1cccc([As](=O)(O)O)c1 | inactive: 4.08%
46 | CCCCOc1ccc(C(=O)NCC2(N3CCCCC3)CCCCC2)cc1OC | inactive: 1.09%
47 | Cc1cc(SC(NC(=O)c2ccccc2)C(Cl)(Cl)Cl)nc(C(C)C)n1 (centres undefined) | inactive: -1.15%
48 | CCOC(=O)Nc1ccc([As](=O)(O)O)c(O)c1 | inactive: 1.24%
49 | CCC(C)N(CC(C)C)C(=S)SC(NC(C)=O)C(Cl)(Cl)Cl (centres undefined) | inactive: 0.889%
50 | CCOC(=O)c1ccc(NC(=O)C(C)(CCl)SC)cc1 (centres undefined) | inactive: 1.83%
51 | O=C(OC1CN2CCC1CC2)c1cccc([N+](=O)[O-])c1 (centres undefined) | inactive: -1.37%
52 | O=C(COc1ccccc1)OC1CN2CCC1CC2 (centres undefined) | inactive: 0.522%
53 | O=C(Nc1ccncc1[N+](=O)[O-])c1ccc([N+](=O)[O-])cc1[N+](=O)[O-] | inactive: -0.449%
54 | COP1(=S)c2c(C)nn(CCC#N)c2N=C(c2ccc(F)cc2)N1C (centres undefined) | inactive: 1.1%
55 | COc1ccc(N/C(=N/P(=O)(N2CCOCC2)N2CCOCC2)N2CCOCC2)cc1 | inactive: 8.36%
56 | COc1ccc2nc(NP(=O)(c3ccccc3)c3ccccc3)sc2c1 | inactive: -0.416%
57 | COc1cc(I)ccc1[As](=O)(O)O | inactive: -0.881%
58 | O=C(OC1CN2CCC1CC2)C12CC3CC(CC(C3)C1)C2 (centres undefined) | inactive: 1.77%
59 | Cc1cc(=O)[nH]c(N[N+](=O)[O-])n1 | inactive: 12%
60 | Cc1c2c(nc3ccccc13)SC(C(Cl)Cl)C2 (centres undefined) | inactive: 3.22%
61 | CC(C)NC(=O)NP(=O)(Oc1ccccc1)Oc1ccccc1 | inactive: -4.68%
62 | CCN(CC)C(=S)SC(NC=O)C(Cl)(Cl)Cl (centres undefined) | inactive: 4.01%
63 | O=[N+]([O-])c1cc([N+](=O)[O-])c(-c2ccn[nH]2)s1 | inactive: 2.38%
64 | CC(C)c1ccc(OP(=O)(Nc2ccccn2)Oc2ccccc2F)cc1 (centres undefined) | inactive: 1.11%
